Measured values published in patent US20200369626A1 (Washington University, priority 2019, published 2020).

The chains behind the UniProt entries cited, without tags or fusion partners.
UniProt O95136, whole entry: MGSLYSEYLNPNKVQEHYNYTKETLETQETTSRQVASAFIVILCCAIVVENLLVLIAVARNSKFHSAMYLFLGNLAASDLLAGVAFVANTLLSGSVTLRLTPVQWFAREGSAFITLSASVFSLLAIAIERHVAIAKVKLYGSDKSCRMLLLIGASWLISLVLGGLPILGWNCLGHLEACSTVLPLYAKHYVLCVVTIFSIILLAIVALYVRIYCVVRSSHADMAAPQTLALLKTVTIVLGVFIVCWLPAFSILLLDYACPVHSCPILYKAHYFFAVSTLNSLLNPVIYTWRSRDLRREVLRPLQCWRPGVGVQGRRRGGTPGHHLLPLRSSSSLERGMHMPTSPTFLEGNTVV

Target: S1PR2 (Homo sapiens, UniProt O95136)
Assay: competitive [^32P]S1P binding assay on cell membranes, S1PR2
Conditions: read-out: IC50 (binding potency toward S1PR2); [^32P]S1P competition, IC50 ± SD, Table 1 (2a-l, 4a-h)

SMILES | IC50
COc1ccccc1NC(=O)Cn1c(=O)c2ccccc2n(Cc2ccc(F)cc2)c1=O [TZ62-014] | > 1000 nM
COc1ccccc1NC(=O)Cn1c(=O)c2ccccc2n(CC(=O)c2ccc(F)cc2)c1=O [TZ62-016] | > 1000 nM
COc1ccc(C(=O)Cn2c(=O)n(CC(=O)Nc3ccccc3OC)c(=O)c3ccccc32)cc1 [TZ62-019] | > 1000 nM
COc1ccccc1NC(=O)Cn1c(=O)c2ccccc2n(CC(=O)c2ccccc2OC)c1=O [TZ62-020] | > 1000 nM
COc1ccccc1NC(=O)Cn1c(=O)c2ccccc2n(CC(=O)Nc2cc(Cl)nc(Cl)c2)c1=O [TZ62-093] | > 1000 nM
